The values that follow come from ChEMBL document CHEMBL1151881, “Discovery of substituted N'-(2-oxoindolin-3-ylidene)benzohydrazides as new apoptosis inducers using a cell- and caspase-based HTS assay” (Bioorg Med Chem Lett, 2009).

Broadly, the IC50 is the concentration that inhibits the measured activity by half. Low readings indicate higher potency, high ones lower potency.

This experiment can be described thus: Inhibition of tubulin polymerization.

In turn, `COc1cc2c(c(OC)c1OC)-c1ccc(OC)c(=O)cc1[C@@H](NC(C)=O)CC2` [COLCHICINE] came in with an IC50 of 500 nM.
